{"source": "patent US5990277A", "about": "“Semipeptoid farnesyl protein transferase inhibitors and analogs thereof” (Yissum Research Development Company of the Herbrew …, priority 1996, dated 1999)", "system": "v-Ha-ras transformed NIH3T3 cells"}
{"substance": "methyl ester Derivative of cysteinyl-(Nα-methyl)valyl-(Nα-cyclohexyl)glycyl-methionine [Semipeptoid 12]", "values": [{"measurement": "lack of toxic effects up to", "value": "up to 250 mM"}]}
